Laboratory results from patent publication US20040248766A1, “Selective inhibition of intracellular amyloid-beta neurotoxicity in human neurons” (priority 2001, published 2004).

System: primary human neurons
Assay: Microinjection of Aβ peptides into the cytosol of primary human neurons, cell death by TUNEL
Type: cell-based
Conditions: peptide microinjected into cytosol
Procedure: Cell cultures. Primary cultures of human neurons and astrocytes were prepared as described in LeBlanc, A., J. Neurosci. 15:7837-46 (1995), incorporated herein by reference. Fresh brain tissues were dissociated with 0.25% trypsin (Gibco-BRL) in phosphate buffered saline (PBS) at 37° C. for 15 minutes. The trypsin was inactivated. by adding 10% decomplemented fetal bovine serum (FBS, HyClone, Logan, Utah.) to the mixture. The dissociated tissues were triturated in 0.1 mg/ml DNaseI (Gibco-BRL) to obtain a homogeneous mixture. The mixture was filtered successively through 130 and 70 gm filters and centrifuged at 15,000 g for 10 minutes at 10° C. to pellet the cells. The cell pellet was washed once with PBS and once with minimal essential media (MEM, Gibco-BRL) in Earle's balanced salt solution containing 0.225% sodium bicarbonate, 1 mM sodium pyruvate, 2 mM L-glutamine, 0.1% dextrose, 1×antibiotic Pen-Strep (all from Gibco-BRL) and 5% decomplemented FBS.
The cells were plated on poly-L-lysine-coated ACLARTM (Cat. No.: 33C; thickness: 0.5 mm; Allied Chemical, Minneapolis, Minn.) coverslips at a density of 3×10^6 cells/ml. Neurons and astrocytes were incubated at 37° C. in the MEM media with 5% CO2, and the media were changed every 48 hours. […]

How did the “intracellular toxicity to human neurons (in words)” value turn out when “Aβ2-42: Aβ2-42 generated by caspase cleavage, lacks N-terminal aspartic acid” was run?
The value was “not found to be neurotoxic”.
